# Yeast mating assay B: variants of the scFv Ab-14

Reference: Li et al. 2023, doi:10.1038/s41467-023-39022-2. File: FLAb, binding data.

The target is the same throughout: PDVDLGDISGINAS, from the HR2 region of SARS-CoV-2 spike.

Parent: Ab-14, a human scFv built as VH, the linker GGGGSGGGGSGGGGS, VL. Only the CDRs of the light chain vary.
VH: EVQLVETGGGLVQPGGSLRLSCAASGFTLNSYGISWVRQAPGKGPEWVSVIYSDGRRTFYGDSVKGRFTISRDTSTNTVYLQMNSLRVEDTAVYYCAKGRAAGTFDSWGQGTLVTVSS
VL: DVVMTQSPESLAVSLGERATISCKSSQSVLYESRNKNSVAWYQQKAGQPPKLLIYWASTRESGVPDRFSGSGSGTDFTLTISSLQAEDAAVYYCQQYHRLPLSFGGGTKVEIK

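The variants were designed computationally from a first round of random CDR variants and then made and measured. Group labels follow the data file (Ctrl: baseline library sampled from a position-specific scoring matrix, with some repeated check sequences; En: ensemble of fine-tuned language models; GP: Gaussian process model; HC: hill climbing; Gen: genetic algorithm; Gibbs: Gibbs sampling; a sequence that several methods proposed may carry one label only). The scFvs were displayed on barcoded MATa yeast, the peptide on MATalpha yeast. After mating in shaken culture at 30 °C for 16 h, diploids were selected and their barcode pairs sequenced. Scores were corrected for input abundance and mapped to Kd with protein pairs of known affinity run in the same pool. The assay was run in six technical replicates.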

Each variant is given by its three light chain CDRs, as the data file delimits them; those of the parent are KSSQSVLYESRNKNSVA, WASTRES, QQYHRLPLS. This list holds designs with at most six substitutions. Kd is apparent (estimated from mating counts) and averaged on the log scale over replicates with a signal. Smaller is tighter. An entry "nd" has no value in the source: the pair was not observed among the diploids in any replicate. This suggests poor binding but is not conclusive. Order: sorted from the lowest average up, undetected variants last. The authors averaged sequences with at least three values out of six and counted those with two or fewer as poor binders. Nonspecific signal, from three strains lacking the peptide, appeared in 4% of pairings of all light chain designs, centred on 430 nM (5% of these signals below 38 nM); values are not corrected for it. A sequence measured in both rounds can read differently, since the two assays cover different ranges. Of ten entries with the parent sequence, four were seen in most replicates (averages 2.2 nM to 240 nM), three in one and three in none, so single entries are noisy.

With KLSQSKLYESRNKNNVA / NASQRES / QQYHRLPLS [GP_Gen] the result was 290 pM (6 of 6 replicates).
With KMSQSVLYESRNKNNVA / GASTRES / QQYHRLPLS [GP_Gen] the result was 290 pM (6 of 6 replicates).
With KLSQSWLYESRNTNSVA / NASTRES / QQYHRLPLS [GP_Gen] the result was 460 pM (6 of 6 replicates).
With KVSQSVMYESRNKNSVA / NASTRES / QQYHRLPLS [GP_Gen] the result was 560 pM (6 of 6 replicates).
With KQSQSVLYESRNKNAVA / DASTRES / QQYHRLPLS [GP_HC] the result was 560 pM (6 of 6 replicates).
With KLSQSVLYESRWKNSVA / DASTRES / QQYHRLPLS [GP_Gen] the result was 590 pM (6 of 6 replicates).
With KMSQSMLYESRNKNSVA / DASQRES / QQYHRLPLS [GP_Gen] the result was 590 pM (6 of 6 replicates).
With KQSPSVLYESVNKNSVA / DASTRES / QQYHRLPLS [GP_HC] the result was 600 pM (6 of 6 replicates).
With KLYQSVWYESRNKNSVA / NASTRES / QQYHRLPLS [GP_Gen] the result was 660 pM (6 of 6 replicates).
With KSEQSQLYESRNKNSVA / NASQRES / QQYHRLPLS [GP_Gen] the result was 660 pM (6 of 6 replicates).
With KLSQSFDYESRQKNSVA / NAQTRES / QQYHRLPLS [GP_Gibbs] the result was 670 pM (6 of 6 replicates).
With KLPQSPLYESRNKNSVA / NASTRES / QQYHRLPLS [GP_Gen] the result was 730 pM (6 of 6 replicates).
With ALSQSVLYESRNKNSVA / NASQRES / QQYHRLPLS [GP_Gen] the result was 790 pM (6 of 6 replicates).
With KVQQSVLYESRNKNSVA / QASTRES / QQYHRLPLS [GP_Gen] the result was 800 pM (6 of 6 replicates).
With KLQQSELYESRNKNSVA / NASTRLS / QQYHRLPLS [GP_Gen] the result was 810 pM (6 of 6 replicates).
With KLMYSAEYESRNKNSVA / EASTRES / QQYHRLPLS [GP_Gibbs] the result was 900 pM (6 of 6 replicates).
With KVMQSELYESRNKNSVA / NASTRES / QQYHRLPLS [GP_Gen] the result was 1.2 nM (6 of 6 replicates).
With KSGQGVLYESRNKNSVA / GASTRES / QQYHRLPLS [En_HC] the result was 1.3 nM (6 of 6 replicates).
With KFSQSQLYESRTSNRVA / NASTRES / QQYHRLPLS [GP_HC] the result was 1.3 nM (6 of 6 replicates).
With KSSISDLYESRNKNSVA / EASTRES / QQYHRLPLS [GP_HC] the result was 1.7 nM (6 of 6 replicates).
With KVSQSHLYESRNMNSVA / NASTREM / QQYHRLPLY [GP_Gibbs] the result was 3.2 nM (6 of 6 replicates).
With KSSQSVLYESSNYNSVA / AASTRES / QQYHRLPLS [Ctrl] the result was 4.4 nM (6 of 6 replicates).
With KISQSVLYESRNVNSVA / WASTRES / QQYHTLPLS [Ctrl] the result was 6.5 nM (6 of 6 replicates).
With KSSQSVLYESRNKNSVA / WASTRES / QQYHRLPLQ [Ctrl] the result was 7.7 nM (6 of 6 replicates).
With KVFISVLLESRNKNSVA / EASTRES / QQYHRLPLS [GP_HC] the result was 11 nM (6 of 6 replicates).
With KVEQGVDDESRNDNSVA / WASTRES / QQYHRLPLS [GP_Gibbs] the result was 13 nM (6 of 6 replicates).
With KSSLSVLDESDQKNSVA / GASTREM / QQYHRLPLS [Ctrl] the result was 14 nM (6 of 6 replicates).
With KSSQSVLYETRNKNSVA / WASTRES / QQYHRLPLS [Ctrl] the result was 34 nM (3 of 6 replicates).
With KSSQSVTMESRNKNSVA / RASTRES / QQYHRLPLS [Ctrl] the result was 77 nM (6 of 6 replicates).
With KSSESVLYTSRNKNDVA / GASTRES / QQYHRTPLD [Ctrl] the result was 78 nM (1 of 6 replicates).
With KSSESVLYESRNKNSVA / WASTRSS / QQYHRLPLS [Ctrl] the result was 89 nM (5 of 6 replicates).
With KSSQSVLYESRNKNSVA / WASTRES / QYYHRLPLS [Ctrl] the result was 570 nM (2 of 6 replicates).
With KASQSVLYESRNKNSVA / WASTRES / QQYHRLPNS [Ctrl] the result was 3.2 µM (1 of 6 replicates).
With KSSQSVLYEMRNKNSVA / WASTRES / QQYHRYPLS [Ctrl] the result was nd (0 of 6 replicates).
With KSSCLVIYESRNKNSVA / WASMRES / QQYHRLPLY [Ctrl] the result was nd (0 of 6 replicates).